In article PMC7181051, “Probing the Protein-Protein Interaction between the ATRXADD Domain and the Histone H3 Tail” (Molecules, 2020):

How the values were obtained:
ATRXADD [1] = target: T1, ATRXADD (Homo sapiens, UniProt P46100); conditions: fluorescence-titration assay; cited from earlier work
T1 construct: The pGEX-GP-2-ATRX ADD plasmid (Addgene plasmid #59698) [17] was transformed into BL21 cells for expression and purification; GST (N, cleaved yes); peptides GenScript #59698; host or cells: E. coli BL21
T1 sequence (P46100 159-296 limits assumed): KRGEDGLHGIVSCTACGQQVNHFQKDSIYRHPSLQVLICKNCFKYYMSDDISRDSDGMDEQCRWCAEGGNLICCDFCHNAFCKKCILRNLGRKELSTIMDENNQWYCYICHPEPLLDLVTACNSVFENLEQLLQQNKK
From the text: It is important to note that a previous fluorescence-titration assay determined Kd values for binding of a small set of H3 peptides to ATRXADD [14]. […] Since our primary goal for these initial binding studies was to replicate the previously identified binding trend ac ...

ATRXADD [2] = target: T1, ATRXADD; experiment: Isothermal titration calorimetry (ITC), this manuscript; type: binding; conditions: data not shown

Substance | Kd (ATRXADD [1]) | ability to bind ATRXADD (ITC), in words (ATRXADD [2])
H3K9me0: H3 peptide of a previous fluorescence-titration assay (ref 14) [Peptide H3K9me0] | > 80 µM | –
5-FAM-ARTKQTARKme3STGGKA [FAM-H31-15K9me3, H3_1–15K9me3 labelled at the N-terminus with the fluorescent FAM label] | – | completely abolished the ability of the H3 peptide to bind ATRXADD
H3K9me3: H3 peptide of a previous fluorescence-titration assay (ref 14) [Peptide H3K9me3] | 1.3 µM | –
